# The entries are a selection whose mix differs from that of the whole data set. Some of these compounds have results that are not shown, active ones among them. Records with an inconclusive call do not appear. Active and inactive are the calls of the source. No stated cut-off is given here; in the data, active means max dye-equivalent concentration above about 10 nM; inconclusive means mostly about 1.1 nM to 9.6 nM; inactive means weaker than that.
# Assay: qHTS Assay for Spectroscopic Profiling in 4-MU Spectral Region
# Conditions: compound autofluorescence, 340/450 nm, 4-MU equivalents
# Text: NIH Molecular Libraries Screening Centers Network [MLSCN] NIH Chemical Genomics Center [NCGC] […] Occasionally, the artifactual effect may originate from the compounds own spectral or other biophysical properties which generally tend to track its assay concentration. Pre-screening/profiling the library with respect to the compounds spectral properties should help one exclude false positives early on. While the most informative fluorescent profiling data set is obtained by performing a full excitation and emission scan of each well by using a monochromator-based plate reader, such an approach is practical only on a very limited scale as scanning each well requires long time. An alternative approach, applied here, is to perform plate reader scans using selected excitation and emission wavelength pairs to generate a multidimensional relational database that correlates compound concentration and the respective relative fluorescence intensity at a given wavelength set. A standard curve of 4-methylumbelliferone (4-MU) present on each plate as six-point concentration series, was used to compute a normalized fluorescence response, termed dye-equivalent concentration, for each compound at each concentration.
# NCGC Assay Protocol Summary: Buffer: 100 mM Tris buffer, pH 8.0 Dye standard plate: The wells in columns 1 through 4 of a Kalypsys polypropylene 1536-well compound plate were filled with standard solutions of fluorophore corresponding to the spectral region of interest. Solutions of 4-MU were placed in the following wells: A1, B1: 3 mM, A2, B2: 300 uM, A3, B3: 30 uM, A4, B4: zero (DMSO), C1, D1: 3 uM, C2, D2: 900 nM, C3, D3: 300 nM, C4, D4: zero (DMSO). Assay Steps: Six uL of buffer were dispensed to 1536-well Greiner black plates. Compounds and dye standards (23 nL) were transferred via Kalypsys PinTool. The plates were incubated for 15 min at room temperature, and then read on ViewLux (Perkin-Elmer) High-throughput CCD imager using 340 nm and 450 nm excitation and emission filter set. Keywords: NIH Roadmap, MLSCN, MLI, MLSMR, qHTS, NCGC, Fluorescent Profiling, 4MU, 4-MU
row,SMILES,outcome
1,C=C(C)C#C[C@@](O)(C(=O)OC1CCN(C)CC1)c1ccccc1,inactive
2,O=C(OC1CN2CCC1CC2)C(CO)(c1ccccc1)c1ccccc1 (centres undefined),inactive
3,CN1CC[C@H](OC(=O)[C@](O)(c2ccccc2)C2CCCC2)C1,inactive
4,CN1CCC[C@H](OC(=O)[C@](O)(c2ccccc2)C2CCCC2)C1,inactive

# — PubChem BioAssay AID589 (National Center for Advancing Translational Sciences (NCATS), 2007)
